From US11180509B2, “Thiazolidone spiro pyrimidine trione compound, preparation method therefor and uses thereof” (SHANGHAI INSTITUTE OF MATERIA MEDICA, CHINESE ACADEMY OF …, priority 2017, dated 2021)

What was measured:
[1] = test system: S. aureus MRSA15-3 infected mice; experiment: In vivo protection test, systemic infection model (ED50); parameters: species or system Kunming mice; details: oral administration
Method: Based on the results of the in vitro test, the clinically isolated methicillin-resistant Staphylococcus aureus MRSA15-3 (see Table 6 below) was selected as a candidate test strain for in vivo protection experiments.
Healthy Kunming mice: aged about 4 weeks, 18-22 g, half male and half male, SPF grade.
One day before the infection of the test bacteria, 2-3 single colonies were picked, inoculated into 2 mL of MH broth, and incubated at 37° C. for 6 h. 0.1 ml of such bacterial solution was transferred to 10 mL of MH broth, and incubated at 37° C. for 18 h. This bacterial solution was the original bacterial stock solution. The bacterial stock solution was diluted in proportion with 5% dry yeast solution for future use (freshly prepared on the same day).
Healthy Kunming mice, weighing 18 to 22 grams, were randomly divide into groups and each group comprised 5-10 mice, half male and half male. The above-mentioned bacterial solution with different dilution concentration were taken and injected into the mice intraperitoneally at a dose of 0.5 ml per 20 g mice weight. […] The minimum dose of bacteria that causes 100% death of mice is the minimum lethal dose (MLD), which is used as the infectious bacteria dose in the in vivo protection test. […]

[2] = In vivo pharmacokinetics test in mice (oral); parameters: species or system CD-1 mice; details: PO 10.0 mg/kg, multiple of the AZD0914 value
Method: Healthy female CD-1 mice were randomly divided into five groups and each group comprised three mice. The tested compound was administered orally.
0.030 mL of blood was taken from the orbit of each animal each time and anticoagulated with EDTAK2. The collection time was as follows. PO group: 15 m, 30 mi, 1 h, 2 h, 4 h, 6 h, 8 h, and 24 h after administration of the test compound. The collected blood samples were placed on ice and centrifuged within 30 minutes to separate the plasma (centrifugation conditions: 5000 rpm, 10 minutes, room temperature). The samples were stored at −80° C. before analysis.

[3] = test system: MRSA, MSSA, MRSE, MSSE, PRSP, and Spy; experiment: In vitro antibacterial activity over the whole strain panel, compared with AZD0914; format: cell-based; details: against MRSA
From the text: The following strains isolated in clinic were used in antibacterial activity screening in vitro: five strains of methicillin-resistant Staphylococcus aureus or MRSA, five strains of methicillin-sensitive Staphylococcus aureus or MSSA, five strains of methicillin-resistant Staphylococcus epidermidis or MRSE, five strains of methicillin-sensitive Staphylococcus epidermidis or MSSE, three strains of penicillin-resistant Streptococcus pneumoniae or PRSP, and three strains of Streptococcus pyogenes.
The above strains were clinically isolated pathogenic bacteria collected in Sichuan and Beijing in December 2015. They were identified by the collection unit via a VITEK-60 automatic microbiological identification instrument, and then re-identified by conventional methods in the laboratory. […]
The MIC value of each test sample for the tested strain was determined by micro broth dilution method recommended by Performance Standards for Antimicrobial Susceptibility Testing (Twenty-Third Informational Supplement; M02-A11, M07-A9 and M11-A8, 2013) of American Clinical and Laboratory Standards Institute (CLSI). […]
The test bacterial solution was adjusted with physiological saline to a bacterial suspension equivalent to 0.5 Maisson turbidity standard, and diluted 1:100 with MH broth. […] The plate was sealed and placed in a 35-37° C. incubator for 18-20 h, and then the results were determined. […]

SMILES | in vivo protective effect relative to AZD0914 [1] | AUC0→t relative to AZD0914 [2] | Cmax relative to AZD0914 [2] | in vitro antibacterial activity relative to AZD0914 [3]
C[C@@H]1CN2c3c(cc4c(N5C[C@H](C)SC5=O)noc4c3F)CC3(C(=O)NC(=O)NC3=O)[C@H]2[C@H](C)O1 [Compound 2, (2R,4S,4aS)-11-fluoro-2,4-dimethyl-8-((S)-5-methyl-2-oxothiazolin-3-yl)-1,2,4,4a-tetrahydro-2′H,6H-spiro[isoxazole[4,5-g][1,4]oxazine[4,3-a]quinoline-5,5′-pyrimidine]-2′,4′,6′(1′H,3′H)-trione] | four-fold stronger | ~32 times) | ~14 times) | about 8 times
C[C@@H]1CN2c3c(cc4c(N5C[C@@H](C)SC5=O)noc4c3F)CC3(C(=O)NC(=O)NC3=O)[C@H]2[C@H](C)O1 [Compound 3, (2R,4S,4aS)-11-fluoro-2,4-dimethyl-8-((R)-5-methyl-2-oxothiazolin-3-yl)-1,2,4,4a-tetrahydro-2′H,6H-spiro[isoxazole[4,5-g][1,4]oxazine[4,3-a]quinoline-5,5′-pyrimidine]-2′,4′,6′(1′H,3′H)-trione] |  | ~16 times) | ~12 times) | about 8 times
